## OPERA 2.9 data: logP (octanol/water) values

The octanol-water partition coefficient is given as log10; larger values mean a more lipophilic compound.

structure (SMILES),log Kow
CCCCC(CC)C(=O)OOC(C)(C)C (configuration not stated),4.79
CC(C)C[C@H](CN)CC(=O)O,1.3
Nc1ccc(-c2ccc(N)c(N)c2)cc1N,0.09
CC[n+]1c(-c2ccccc2)c2cc(N)ccc2c2ccc(N)cc21.[Br-],-1.1
Clc1ccc(-c2c(Cl)ccc(Cl)c2Cl)c(Cl)c1,6.13
Cc1ccc(O)c(Cl)c1,2.65
COC(=O)c1cc([N+](=O)[O-])cc([N+](=O)[O-])c1,1.84
CNC(=O)c1cc(C#N)cc(C)c1NC(=O)c1cc(Cn2nnc(C(F)(F)F)n2)nn1-c1ncccc1Cl,2.6
CC(=NNC(=O)Nc1cc(F)cc(F)c1)c1ncccc1C(=O)O,1.09
C[N+](C)(C)CC1CO1.[Cl-] (configuration not stated),-1.3
COC1C(O)CC(OC2C(O)CC(OC3C(O)CC(OC4CCC5(C)C(CCC6C5CCC5(C)C(C7=CC(=O)OC7)CCC65O)C4)OC3C)OC2C)OC1C (configuration not stated),3.11
CC(C)(C)C(=O)Cl,0.945
Brc1cc(Br)c(OCCOc2c(Br)cc(Br)cc2Br)c(Br)c1,8.9
CN1C[C@H](C(=O)O)C=C2c3cccc4[nH]cc(c34)C[C@H]21,-0.24
CCC(C)(C)OOC1(OOC(C)(C)CC)CCCCC1,6.85
C=CC(C#N)OC(C)=O (configuration not stated),0.12
C[N+]1(C)C2CCC1CC(OC(=O)C(CO)c1ccccc1)C2.O=[N+]([O-])[O-] (configuration not stated),-2.22
CCCCOP(=O)(O)OCCCC,0.57
COc1cc(CCN)ccc1O,-0.08
CC(C)C[C@H]1C(=O)N2CCC[C@H]2[C@]2(O)O[C@](NC(=O)[C@@H]3C=C4c5cccc6[nH]c(Br)c(c56)C[C@H]4N(C)C3)(C(C)C)C(=O)N12,3.5
C1CCC2CCCCC2C1 (configuration not stated),4.7
O=C(O)CC(CP1(=O)Oc2ccccc2-c2ccccc21)C(=O)O (configuration not stated),1.8
O=C1C[N+]([O-])=C(c2ccccc2)c2cc(Cl)ccc2N1CCO,0.82
COc1ccc(CN2CCNCC2)c(OC)c1OC,1.143
CC1OC(OC2CCC3(CO)C4CCC5(C)C6(C=CC(=O)OC6)CCC5(O)C4CCC3(O)C2)CC(O)C1O (configuration not stated),0.15
C=CC(=O)OCCN(C)C,0.68
OCCSSCCO,-0.3
CC(C)(C)OOC(C)(C)C,3.2
CN1CCC2CC1Cc1ccccc12.Cl (configuration not stated),-1.65
Cl.ClCCN1CCCC1,0.736
CCC(C)(C)OOC(=O)C(C)(C)C,3.3
Cc1cccc([C@H](C)c2cnc[nH]2)c1C,2.8
Cc1cc(Cc2cc(C)c(N)c(C)c2)cc(C)c1N,2.6
CC(C)(OO)c1ccccc1,1.88
C=CC(=O)OCCCCOC(=O)C=C,1.9
CCOP(=S)(OCC)SC1OCCOC1SP(=S)(OCC)OCC (configuration not stated),3
O=S1(=O)OCCO1,-0.04
CCOc1cc(C(C)(C)C)ccc1C1COC(c2c(F)cccc2F)=N1 (configuration not stated),5.59
CNC(=O)C(C#N)=c1[nH]c(=C2C(=O)NC(=O)NC2=O)c2ccccc12,1.4
Clc1cc(Cl)c(-c2ccc(Cl)c(Cl)c2)c(Cl)c1,6.58
CC(=O)OCC1=C(C(=O)O)N2C(=O)[C@@H](N)[C@H]2SC1,-3.4
CC(C)CC(C)(C#N)N=NC(C)(C#N)CC(C)C (configuration not stated),3.319
OCCOCCO,1.3
NCCOP(=O)(O)OCC(O)CO.O,-3.25
CCOP(=S)(Oc1cnc(C(C)(C)C)nc1)OC(C)C (configuration not stated),4.2
C[C@H]1CC(=O)C[C@@H]2CC[C@H]3[C@@H]4CC[C@H](O)[C@@]4(C)CC[C@@H]3[C@]21C,3.61
C=C(C)c1ccc(O)cc1,2.9
COc1ccc(-c2ccccc2)cc1NNC(=O)OC(C)C,3.4
FC(F)(F)I,2.41
FC(C(F)C(F)(F)C(F)(F)F)C(F)(F)F (configuration not stated),2.7
CN1CCCC[C@H]1c1cccnc1,0.96
CCCCCCOP(=O)(OCCCCCC)OCCCCCC,7.04

Excerpt, the final 4 entries:

{"smiles": "FC(F)(F)I", "log Kow": "2.41"}
{"smiles": "FC(C(F)C(F)(F)C(F)(F)F)C(F)(F)F", "stereo": "configuration not stated", "log Kow": "2.7"}
{"smiles": "CN1CCCC[C@H]1c1cccnc1", "log Kow": "0.96"}
{"smiles": "CCCCCCOP(=O)(OCCCCCC)OCCCCCC", "log Kow": "7.04"}

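OPERA's authors assembled the values from existing databases and did not measure them anew. One number stands for a compound and property, with no spread given. Method and conditions are not stated for these values. The measured form (salt, isomer or mixture) is not always the one drawn. Unmarked limits or estimates from the upstream databases cannot be ruled out.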

Data: OPERA 2.9 data sets, kmansouri/OPERA on GitHub.